The values that follow are results of earlier work, collected in patent publication US20150313892A1, “PHARMACEUTICAL COMPOSITIONS FOR TREATING PAIN ASSOCIATED WITH DYSMENORRHEA” (priority 2014, published 2015).

Amino acid sequences for entries named in this document (tags omitted).
UniProt P35372, whole entry: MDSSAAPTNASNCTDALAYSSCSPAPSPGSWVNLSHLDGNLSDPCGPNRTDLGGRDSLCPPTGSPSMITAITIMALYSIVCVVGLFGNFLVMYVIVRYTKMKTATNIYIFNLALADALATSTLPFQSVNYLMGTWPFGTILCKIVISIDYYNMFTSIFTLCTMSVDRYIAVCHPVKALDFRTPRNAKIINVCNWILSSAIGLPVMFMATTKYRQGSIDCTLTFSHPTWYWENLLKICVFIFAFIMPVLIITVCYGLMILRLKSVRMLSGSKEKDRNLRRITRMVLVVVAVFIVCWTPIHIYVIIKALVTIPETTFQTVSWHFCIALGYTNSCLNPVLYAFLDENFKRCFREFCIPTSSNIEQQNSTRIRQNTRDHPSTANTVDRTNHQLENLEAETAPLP

What is called Ki is a dissociation constant, usually derived from enzyme kinetics or from competition with a known ligand.

The target of one series is μ-opioid (Homo sapiens, UniProt P35372). To be noted: read-out: Binding Constant Ki, μ-opioid; cited from earlier work.
In series [1] the test system is common receptor sites (benzodiazepine, glutamate, NMDA, adrenergic, adenosine, cholinergic, dopamine, histamine H1, serotonin, opiate, cannabinoid 1, calcium …). The following applies: concentrations up to 100 μM; cited from earlier work.

With `CN1CC[C@@]23CCCC[C@@H]2[C@@H]1Cc1ccc(O)cc13` [Dextrorphan], the Ki at μ-opioid is 420 nM. As to `NCC1(CC(=O)O)CCCCC1` [Gabapentin], the “affinity for other common receptor sites” value in series [1] is “did not exhibit affinity”. Regarding `CN1CC[C@]23CCCC[C@H]2[C@H]1Cc1ccc(O)cc13` [Levorphanol], the inhibition constant Ki on μ-opioid is 0.42 nM.
